By UniProt entry, the sequences of proteins in these tests, tags left out.
UniProt Q62666, whole entry: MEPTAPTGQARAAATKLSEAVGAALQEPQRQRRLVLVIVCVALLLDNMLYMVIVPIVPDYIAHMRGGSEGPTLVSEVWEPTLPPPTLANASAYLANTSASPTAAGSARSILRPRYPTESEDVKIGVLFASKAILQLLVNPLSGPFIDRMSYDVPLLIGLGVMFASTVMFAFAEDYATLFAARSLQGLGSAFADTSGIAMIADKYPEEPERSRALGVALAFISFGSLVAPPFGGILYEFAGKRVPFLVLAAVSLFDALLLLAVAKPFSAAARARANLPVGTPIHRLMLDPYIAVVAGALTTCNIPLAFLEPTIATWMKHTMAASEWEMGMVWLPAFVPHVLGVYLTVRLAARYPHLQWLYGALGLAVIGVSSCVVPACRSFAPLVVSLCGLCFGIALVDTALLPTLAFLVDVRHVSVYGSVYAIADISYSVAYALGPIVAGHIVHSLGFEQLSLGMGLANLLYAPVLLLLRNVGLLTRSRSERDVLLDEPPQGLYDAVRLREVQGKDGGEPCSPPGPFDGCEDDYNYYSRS

In patent publication EP1205473A1, “VESAMICOL PIPERAZINE DERIVATIVES AND DRUGS CONTAINING THE SAME” (DAIICHI RADIOISOTOPE LABORATORIES, LTD., priority 1999, dated 2001):

Biological target: vesamicol receptors (Rattus norvegicus, UniProt Q62666)
Test: Inhibition experiment: inhibition of binding of radioactive-iodine-labeled DRC140 to P2 fractions
Conditions: read-out: IC50 (nM) Average ± S.D, Table 7, Binding site names the inhibitor's own site

With `CN1[C@@H]2CC[C@H]1C[C@@H](NC(=O)c1nn(C)c3ccccc13)C2` the IC50 was > 5000 nM.
